The data set concerns the molecule itself. Put plainly: non-reducing denaturing western blot.

B1: endogenous STING (natural protein, human (endogenous in BJ-5ta), UniProt Q86WV6 1-379, looked up)
chain: MPHSSLHPSIPCPRGHGAQKAALVLLSACLVTLWGLGEPPEHTLRYLVLHLASLQLGLLLNGVCSLAEELRHIHSRYRGSYWRTVRACLGCPLRRGALLLLSIYFYYSLPNAVGPPFTWMLALLGLSQALNILLGLKGLAPAEISAVCEKGNFNVAHGLAWSYYIGYLRLILPELQARIRTYNQHYNNLLRGAVSQRLYILLPLDCGVPDNLSMADPNIRFLDKLPQQTGDHAGIKDRVYSNSIYELLENGQRAGTCVLEYATPLQTLFAMSQYSQAGFSREDRLEQAKLFCRTLEDILADAPESQNNCRLIAYQEPADDSSFSLSQEVLRHLRQEEKEEVTVGSLKTSAVPSTSTMSQEPELLISGMEKPLPLRTDFS
Regarding B1, the “stoichiometry N” value was 2.
